From patent publication US20050025822A1, “Method of pulmonary administration of an agent” (priority 2003, published 2005)

Assay: In vivo delivery of liposomal ciprofloxacin via tracheal infusion (plasma and lung concentration)
Conditions: rats, 48 hours after intratracheal instillation

O=C(O)c1cn(C2CC2)c2cc(N3CCNCC3)c(F)cc2c1=O [free ciprofloxacin, ciprofloxacin]
concentration of ciprofloxacin in the lungs (in words): low amount of ciprofloxacin was recovered in the lung tissue
